This is an account of results in ChEMBL document CHEMBL5058646 (2022).

The chains behind the UniProt entries cited, without tags or fusion partners. Where a name states a change or a piece, a line headed by the entry shows the natural chain unless it says otherwise.
UniProt O95365: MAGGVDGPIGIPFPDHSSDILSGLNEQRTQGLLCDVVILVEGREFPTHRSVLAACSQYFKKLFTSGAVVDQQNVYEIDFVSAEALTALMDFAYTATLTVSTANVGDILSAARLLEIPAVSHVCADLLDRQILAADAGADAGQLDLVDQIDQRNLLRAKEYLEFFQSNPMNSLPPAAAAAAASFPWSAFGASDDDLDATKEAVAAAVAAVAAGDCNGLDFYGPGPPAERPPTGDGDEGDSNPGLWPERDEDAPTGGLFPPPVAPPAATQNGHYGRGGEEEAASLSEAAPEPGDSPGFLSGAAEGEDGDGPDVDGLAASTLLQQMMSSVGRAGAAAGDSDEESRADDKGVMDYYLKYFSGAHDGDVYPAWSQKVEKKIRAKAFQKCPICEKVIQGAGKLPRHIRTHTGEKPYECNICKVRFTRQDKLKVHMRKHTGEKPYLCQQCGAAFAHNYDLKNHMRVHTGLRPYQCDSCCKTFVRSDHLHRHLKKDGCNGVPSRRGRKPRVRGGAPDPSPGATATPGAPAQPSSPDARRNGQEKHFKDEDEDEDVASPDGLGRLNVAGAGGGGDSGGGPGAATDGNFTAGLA
UniProt Q9Y243: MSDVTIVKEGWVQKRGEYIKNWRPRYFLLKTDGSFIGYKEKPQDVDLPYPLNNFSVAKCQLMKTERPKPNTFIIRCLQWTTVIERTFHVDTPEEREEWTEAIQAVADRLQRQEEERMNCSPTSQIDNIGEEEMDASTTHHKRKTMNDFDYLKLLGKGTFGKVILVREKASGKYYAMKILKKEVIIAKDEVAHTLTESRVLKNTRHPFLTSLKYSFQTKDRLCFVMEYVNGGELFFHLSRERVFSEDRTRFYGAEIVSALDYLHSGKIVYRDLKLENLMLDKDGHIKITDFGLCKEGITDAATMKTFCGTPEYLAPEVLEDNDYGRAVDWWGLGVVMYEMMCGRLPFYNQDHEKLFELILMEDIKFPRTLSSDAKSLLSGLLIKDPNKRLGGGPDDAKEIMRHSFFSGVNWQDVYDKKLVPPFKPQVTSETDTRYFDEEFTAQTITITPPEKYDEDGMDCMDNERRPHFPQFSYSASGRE

The target of assay [1] is T1, Zinc finger and BTB domain-containing protein 24 (Homo sapiens) (UniProt O43167).
T1 sequence (whole entry): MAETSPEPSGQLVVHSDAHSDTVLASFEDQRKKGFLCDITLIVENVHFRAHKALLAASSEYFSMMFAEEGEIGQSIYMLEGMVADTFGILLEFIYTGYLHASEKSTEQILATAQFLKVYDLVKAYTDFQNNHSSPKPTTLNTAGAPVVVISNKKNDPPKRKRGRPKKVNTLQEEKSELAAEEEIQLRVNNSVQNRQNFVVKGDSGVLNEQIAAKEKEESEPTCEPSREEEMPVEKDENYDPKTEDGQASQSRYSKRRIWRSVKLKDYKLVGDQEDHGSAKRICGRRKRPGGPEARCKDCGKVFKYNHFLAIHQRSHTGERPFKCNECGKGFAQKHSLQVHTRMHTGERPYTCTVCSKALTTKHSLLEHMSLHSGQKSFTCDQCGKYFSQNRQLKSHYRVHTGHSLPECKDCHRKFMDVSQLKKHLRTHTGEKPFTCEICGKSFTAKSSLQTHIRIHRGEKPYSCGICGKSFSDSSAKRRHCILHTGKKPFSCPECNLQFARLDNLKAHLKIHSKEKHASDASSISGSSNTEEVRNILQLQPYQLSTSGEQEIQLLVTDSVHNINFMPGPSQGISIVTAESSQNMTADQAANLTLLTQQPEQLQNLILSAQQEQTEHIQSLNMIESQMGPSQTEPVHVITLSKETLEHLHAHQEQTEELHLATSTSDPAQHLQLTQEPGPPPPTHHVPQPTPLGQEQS
The following applies: OCI-Ly1.

Assay [2] deals with Zinc finger and BTB domain-containing protein 7A (Homo sapiens) (UniProt O95365). The following applies: SUD4.
Assay [3] has as its target RAC-gamma serine/threonine-protein kinase (Homo sapiens) (UniProt Q9Y243). To be noted: Compound concentration 20.0 uM.
Assay [4] concerns the target T2, Zinc finger and BTB domain-containing protein 1 (Homo sapiens) (UniProt Q9Y2K1).
T2 sequence (whole entry): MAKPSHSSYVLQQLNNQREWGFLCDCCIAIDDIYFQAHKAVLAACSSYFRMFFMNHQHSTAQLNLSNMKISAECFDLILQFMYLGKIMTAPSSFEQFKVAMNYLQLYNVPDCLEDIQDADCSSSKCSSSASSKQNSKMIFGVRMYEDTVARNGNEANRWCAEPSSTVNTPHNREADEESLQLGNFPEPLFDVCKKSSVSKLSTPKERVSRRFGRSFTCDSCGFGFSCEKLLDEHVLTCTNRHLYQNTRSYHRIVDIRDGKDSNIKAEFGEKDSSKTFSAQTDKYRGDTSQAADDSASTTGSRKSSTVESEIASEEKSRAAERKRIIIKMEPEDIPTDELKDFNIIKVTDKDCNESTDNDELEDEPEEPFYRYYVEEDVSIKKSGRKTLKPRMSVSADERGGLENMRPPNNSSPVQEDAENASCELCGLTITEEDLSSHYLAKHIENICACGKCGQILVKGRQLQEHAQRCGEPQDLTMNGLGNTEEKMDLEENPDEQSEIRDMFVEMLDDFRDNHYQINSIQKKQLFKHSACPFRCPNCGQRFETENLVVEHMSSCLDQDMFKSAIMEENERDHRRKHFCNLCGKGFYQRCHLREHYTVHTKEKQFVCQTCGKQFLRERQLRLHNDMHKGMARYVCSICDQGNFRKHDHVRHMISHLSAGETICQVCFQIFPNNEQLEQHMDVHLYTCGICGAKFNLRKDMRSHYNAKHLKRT
To be noted: OCI-Ly1.

The target of assay [5] is T3, Zinc finger and BTB domain-containing protein 43 (Homo sapiens) (UniProt O43298).
T3 sequence (whole entry): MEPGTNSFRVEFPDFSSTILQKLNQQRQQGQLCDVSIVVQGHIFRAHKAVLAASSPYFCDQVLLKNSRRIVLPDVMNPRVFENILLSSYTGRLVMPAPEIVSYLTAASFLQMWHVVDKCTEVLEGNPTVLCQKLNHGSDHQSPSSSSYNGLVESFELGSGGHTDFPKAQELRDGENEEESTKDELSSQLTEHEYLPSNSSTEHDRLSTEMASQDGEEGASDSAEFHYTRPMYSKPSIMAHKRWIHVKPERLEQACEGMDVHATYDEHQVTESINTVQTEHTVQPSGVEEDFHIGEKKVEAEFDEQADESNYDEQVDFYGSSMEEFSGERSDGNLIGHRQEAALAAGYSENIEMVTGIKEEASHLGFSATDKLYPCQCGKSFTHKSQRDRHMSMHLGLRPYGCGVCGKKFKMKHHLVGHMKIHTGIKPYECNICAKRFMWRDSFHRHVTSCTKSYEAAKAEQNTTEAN
The following applies: SUD4.

Assay [6] deals with T4, Zinc finger and BTB domain-containing protein 44 (Homo sapiens) (UniProt Q8NCP5).
T4 sequence (whole entry): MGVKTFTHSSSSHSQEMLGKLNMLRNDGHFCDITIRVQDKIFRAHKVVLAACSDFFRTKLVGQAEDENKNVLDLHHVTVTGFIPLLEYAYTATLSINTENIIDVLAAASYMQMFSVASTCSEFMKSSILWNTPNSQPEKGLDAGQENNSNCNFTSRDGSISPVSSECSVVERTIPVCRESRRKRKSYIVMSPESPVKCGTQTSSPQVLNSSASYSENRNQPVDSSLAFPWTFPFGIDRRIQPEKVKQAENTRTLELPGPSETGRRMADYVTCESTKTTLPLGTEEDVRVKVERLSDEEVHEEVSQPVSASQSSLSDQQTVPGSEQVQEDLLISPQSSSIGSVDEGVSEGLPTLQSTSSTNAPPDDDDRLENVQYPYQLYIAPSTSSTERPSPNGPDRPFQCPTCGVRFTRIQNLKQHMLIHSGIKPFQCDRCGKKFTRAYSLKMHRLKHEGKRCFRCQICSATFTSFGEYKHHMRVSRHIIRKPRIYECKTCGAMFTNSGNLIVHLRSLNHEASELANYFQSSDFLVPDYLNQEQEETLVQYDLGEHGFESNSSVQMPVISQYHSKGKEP
To be noted: SUD4.

As to `C[C@@H]1CN(c2ncc(Cl)c(Nc3ccc4c(c3)n(CCC(C)(C)O)c(=O)n4C)n2)C[C@H](C)C1(F)F`, the Normalized abundances for DMSO in assay [1] amounted to 39.1; in assay [2], 911; in assay [4] it was 116; in assay [5] it was 635; in assay [6], 566. Further, the Normalized abundances for compound in assay [1] came out at 36.2; in assay [2], 869; in assay [4], 111; in assay [5] it was 643; in assay [6], 563. For the same compound, the Tm in assay [3] is 49 °C.
